Protein sequences, listed by entry. Tags and fused reporters are not part of them.
UniProt Q3TCH7, whole entry, looked up: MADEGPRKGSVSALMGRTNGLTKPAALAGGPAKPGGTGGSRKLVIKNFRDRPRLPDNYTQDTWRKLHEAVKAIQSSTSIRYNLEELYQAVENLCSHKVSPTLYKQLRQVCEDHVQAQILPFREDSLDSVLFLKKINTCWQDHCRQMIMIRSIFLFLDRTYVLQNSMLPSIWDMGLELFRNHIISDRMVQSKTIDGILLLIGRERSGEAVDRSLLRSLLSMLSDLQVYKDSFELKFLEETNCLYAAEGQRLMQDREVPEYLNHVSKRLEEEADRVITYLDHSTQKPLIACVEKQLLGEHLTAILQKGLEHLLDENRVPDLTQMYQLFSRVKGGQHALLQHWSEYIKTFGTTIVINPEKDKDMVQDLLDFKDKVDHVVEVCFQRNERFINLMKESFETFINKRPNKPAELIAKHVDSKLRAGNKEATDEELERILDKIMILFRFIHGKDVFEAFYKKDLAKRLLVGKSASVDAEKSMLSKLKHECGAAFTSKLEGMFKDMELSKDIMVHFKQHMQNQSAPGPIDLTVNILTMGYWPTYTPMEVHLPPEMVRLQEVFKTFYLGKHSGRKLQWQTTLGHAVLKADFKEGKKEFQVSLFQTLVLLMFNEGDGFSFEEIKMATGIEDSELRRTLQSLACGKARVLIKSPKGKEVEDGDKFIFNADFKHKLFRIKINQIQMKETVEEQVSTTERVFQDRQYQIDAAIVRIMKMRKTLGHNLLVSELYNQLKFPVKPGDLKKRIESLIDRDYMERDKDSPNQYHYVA

According to ChEMBL document CHEMBL4418496, “Inhibitors of crl4 ubiquitin ligase and uses thereof” (2014):

Biological target: Cullin-4A (Mus musculus) (UniProt Q3TCH7)
Test: Inhibition of CUL4A in mouse MEF cells stably expressing FL FLAG-tagged DDB2 assessed as reduction in F-DDB2 degradation incubated for 2 hrs before irradiated with 10 J/m2 UV irradiation
Type: cell-based

For `COc1cc(Br)c([N+](=O)[O-])nc1[N+](=O)[O-]`, the “inhibition (active/inactive call)” value was “Active”.

The source made the active and inactive calls. The calls are words filed in the database; no cut-off is given here.
